The values below come from patent publication US11597737B2, “Small molecule inhibitors selective for polo-like kinase proteins” (UNIVERSITY OF SOUTH CAROLINA, priority 2016, dated 2023).

Chains of the proteins cited; added tags and fusions are not shown. Residues count along the entry.
UniProt P53350, 367-603: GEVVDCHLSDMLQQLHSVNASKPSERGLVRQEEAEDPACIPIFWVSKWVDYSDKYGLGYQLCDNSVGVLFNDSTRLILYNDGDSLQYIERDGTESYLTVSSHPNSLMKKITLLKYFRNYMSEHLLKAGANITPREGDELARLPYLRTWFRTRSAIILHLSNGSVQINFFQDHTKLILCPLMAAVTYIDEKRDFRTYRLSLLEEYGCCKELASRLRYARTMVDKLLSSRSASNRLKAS

One assay deals with T1, PLK3 PBD (335-646) (Homo sapiens, UniProt Q9H4B4).
T1 construct: PLK3 PBD (335-646); purchased BPS Biosciences Inc. (San Diego, Calif.)
T1 sequence (Q9H4B4 335-646): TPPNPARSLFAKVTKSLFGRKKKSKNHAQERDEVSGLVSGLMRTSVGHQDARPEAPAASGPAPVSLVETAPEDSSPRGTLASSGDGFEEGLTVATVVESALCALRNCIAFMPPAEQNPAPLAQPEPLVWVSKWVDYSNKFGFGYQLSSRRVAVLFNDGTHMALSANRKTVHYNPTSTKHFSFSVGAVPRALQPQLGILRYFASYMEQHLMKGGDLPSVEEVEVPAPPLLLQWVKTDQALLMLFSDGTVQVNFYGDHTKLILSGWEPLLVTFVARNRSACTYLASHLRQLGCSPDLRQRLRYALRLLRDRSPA
The assay can be described thus: Fluorescence polarization assay, PLK3 PBD. The following applies: PLK3 PBD binding. As for the experimental part:
(§1) Fluorescence Polarization Assay
(§2) Materials were dissolved in DMSO (10 mM) and diluted from 10 nM to 600 μM (maximum of 6% DMSO tolerance in the assay). […] Incubation was carried out at room temperature for 45 minutes. Fluorescence was measured using a DTX 880 plate reader and Multimode Analysis software (Beckman Coulter, Brea, Calif.). […] Each data point was performed in triplicate for every experiment, and experiments were performed at least three times. An IC50 value for each compound was calculated from linear regression analysis of the plots.

The next assay concerns the target T2, PLK1 PBD (367-603) (Homo sapiens, UniProt P53350).
T2 construct: PLK1 PBD (367-603); purchased BPS Biosciences Inc. (San Diego, Calif.)
The assay can be described thus: Fluorescence polarization assay, PLK1 PBD. To be noted: PLK1 PBD binding. As for the experimental part: as §1, §2

The subject of assay [1] is HeLa cervical cancer cells. Description: Cell viability assay (MTT), HeLa. The assay is classed as cell-based. The following applies: 72 hours. The protocol:
HeLa cervical cancer cells were obtained from ATCC (Manassas, Va.). […] Cells were maintained in DMEM (Invitrogen™, Carlsebad, Calif.) supplemented with 10% FBS or Corning© Nu-Serum™ (BD™ Biosciences, Franklin Lakes, N.J.) and 1% penicillin/streptomycin (Invitrogen™) in a humidified incubator and 5% CO2 at 37° C.
(§3) Exponentially growing cells were plated in 96-well dishes. Dose response curves were used to treat cells for 72 hours with inhibitors. Following the three-day treatment, cell viability was measured using the MTT (3-(4,5-dimethylthiazol-2-yl)-2,5-diphenyltetrazolium bromide) colorimetric assay. Cells were incubated for 3 hours with MTT allowing viable cells to metabolize the tetrazolium dye to a purple colored solution.

Assay [2] relates to HCT-116 (p53+/+) colon cancer cells. The assay can be described thus: Cell viability assay (MTT), HCT116 p53+/+. In kind it is cell-based. To be noted: 72 hours. The protocol: as §3

For the compound `CCCCCCCCc1ccc(C(=O)Nc2cccc([N+](=O)[O-])c2C(=O)O)cc1` [SCCP ID No. 5939], the half-inhibitory concentration (IC50) on PLK3 PBD (335-646) turned out to be 9.96 ± 1.52 µM.

At PLK1 PBD (367-603), `CCCCCCc1ccc(C(=O)Nc2ccccc2C(=O)O)cc1` [SCCP ID No. 5881] yielded an IC50 of 18.4 ± 5.3 µM. Regarding `CCCCCCCCc1ccc(C(=O)Nc2cccc(F)c2C(=O)O)cc1` [SCCP ID No. 5932], the concentration for half-maximal inhibition (IC50) in assay [1] is 12.7 ± 2.3 µM; in assay [2], 12.4 ± 2.7 µM; at PLK3 PBD (335-646) it was 13.2 ± 0.46 µM. With `CCCCCCCCc1ccc(C(=O)Nc2ccc(C)cc2C(=O)O)cc1` [SCCP ID No. 5915], the 50% inhibitory concentration (IC50) at PLK3 PBD (335-646) is 7.68 ± 2.41 µM.

Broadly, the IC50 is the midpoint of a concentration-inhibition curve. A high value points to lower potency.
